scFv variants of Ab-14 (heavy chain) against a SARS-CoV-2 spike peptide

Reference: Li et al. 2023, doi:10.1038/s41467-023-39022-2. File: FLAb, binding data.

Target peptide (SARS-CoV-2 spike, HR2 region): PDVDLGDISGINAS

Parent scFv Ab-14: VH joined to VL by a 15-residue (Gly4Ser)3 linker. Changes lie in the heavy chain CDRs alone.
VH: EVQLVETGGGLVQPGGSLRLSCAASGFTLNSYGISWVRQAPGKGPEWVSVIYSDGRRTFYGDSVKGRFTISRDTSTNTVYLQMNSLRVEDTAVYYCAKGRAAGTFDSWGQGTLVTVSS
VL: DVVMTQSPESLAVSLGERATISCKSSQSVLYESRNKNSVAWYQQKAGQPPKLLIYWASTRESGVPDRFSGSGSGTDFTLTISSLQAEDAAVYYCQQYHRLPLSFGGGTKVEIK

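Phage display of a naive human antibody library on the peptide gave the parent. These sequences belong to a second round, designed from the earlier measurements on random variants of the parent. Their group label is 14H_GP_HC (GP: Gaussian process model; HC: hill climbing; a sequence that several methods proposed may carry one label only). The scFvs were displayed on barcoded MATa yeast, the peptide on MATalpha yeast. After mating in shaken culture at 30 °C for 16 h, diploids were selected and their barcode pairs sequenced. A regression on co-assayed BCL2-family reference pairs converts the normalised counts of each replicate to an apparent Kd. There are six technical replicates.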

Each variant is given by its three heavy chain CDRs, as the data file delimits them; those of the parent are GFTLNSYGIS, VIYSDGRRTFYGDSVK, GRAAGTFDS.
Scale: log10 of Kd in nM, estimated from mating counts; low values are strong binders.
A mean of the replicates is given; it leaves out those without a signal.
Where no diploid with the target was found in that replicate, the entry reads "nd": below detection, most likely a poor binder, though not proof of it.
A sequence measured in both rounds can read differently, since the two assays cover different ranges.
Three control strains display no target. For all heavy chain designs, 1% of the pairings with them gave a signal, with a median of 2.08 and one signal in twenty below 0.84, so weak values seen in few replicates may be background. For each scFv, signals with the empty controls are counted beside the result.
The authors averaged sequences with at least three values out of six and counted those with two or fewer as poor binders.

With GFTLESYGIS, VIYADGRRTFYGDAVK, GRAAGTFKS the result was nd, 4.38, 3.01, nd, nd, nd (mean 3.69; controls 0 of 18).
With GFTLNSYGIS, VIYADGRRTFYGDQVK, GRTAGTFKS the result was nd, nd, 2.86, 3.15, 3.41, nd (mean 3.14; controls 0 of 18).
With GFDLNDYGIS, VIYSDGRRTFYGDSVK, GTAAGTFDS the result was 0.07, 0.18, 0.48, 0.14, -0.09, 0.41 (mean 0.20; controls 1 of 18).
With GFTLNEYGIS, VIYSDGRRTFYADDVK, GRFAGTFDS the result was 0.19, 0.12, -0.04, 0.17, 0.25, -0.17 (mean 0.09; controls 0 of 18).
With GFTLNEYGIS, VIYSDGRRTFYADSVK, GHAAGTFDN the result was nd, 1.03, 1.02, 0.59, 0.40, 1.03 (mean 0.81; controls 0 of 18).
With GFTLNDYGIS, VIYSDGRRTFYGDSVK, GRCAGTFKS the result was nd, nd, nd, nd, nd, nd (controls 0 of 18).
With GFTLNEYGIS, VIYSDGRRTFYQDSVK, GRFAGTFDN the result was nd, 1.87, 1.81, nd, 2.28, 1.66 (mean 1.90; controls 0 of 18).
With GFTLNEYGIS, VIYSDGRRTFYTDSVK, GREAGTFDE the result was 0.75, 0.15, 0.92, 2.38, 0.63, 0.45 (mean 0.88; controls 0 of 18).
With GFTLNWYGIS, VIYSDGRRTFYSDSVK, GRLAGTFDT the result was nd, nd, nd, nd, nd, nd (controls 0 of 18).
With GFTLNEYGIS, VIYSDGRRTFYTDSVK, GHAAGTFDL the result was 0.26, 0.06, -0.08, -0.05, -0.03, 0.47 (mean 0.11; controls 1 of 18).
With GFTLNSYGIS, VIYSDGRRTFYADNVK, GQLAGTFDS the result was 0.48, 0.54, nd, 1.35, 0.56, 1.54 (mean 0.89; controls 1 of 18).
With KFTLNSYGIS, VIYSDGRRTFYDDSVK, GQEAGTFDS the result was nd, nd, nd, nd, 0.94, nd (controls 0 of 18).
With GFSLNEYGIS, VIYSDGRRTFYGDSVK, GFAAGTFDL the result was 1.14, 0.48, 0.84, 0.75, 0.86, 0.96 (mean 0.84; controls 1 of 18).
With GETLNEYGIS, VIYSDGRRTFYTDSVK, GRFAGTFDS the result was 0.90, 2.04, nd, nd, 0.62, nd (mean 1.19; controls 0 of 18).
With GFTLNEYGIS, VIYSDGRRTFYTDHVK, GRFAGTFDS the result was 0.79, 1.57, 1.15, 0.72, 0.81, 1.11 (mean 1.03; controls 1 of 18).
With GFDLNSYGIS, VIYSDGRRTFYGDSVK, GRRAGTFES the result was nd, nd, nd, nd, nd, nd (controls 0 of 18).
With GFTLNEYGIS, VIYSDGRRTFYGDSVK, GRAAETFDV the result was nd, nd, nd, nd, nd, nd (controls 0 of 18).
With GFDLNSYGIS, VIYSDGRRTFYGDSVK, GKAAGIFDS the result was nd, nd, nd, nd, nd, nd (controls 0 of 18).
With WFTLNEYGIS, VIYSDGRRTFYSDSVK, GRAAGTFDS the result was 0.73, 1.72, 1.94, 0.85, 1.03, 1.48 (mean 1.29; controls 0 of 18).
With RFTLNSYGIS, VIYSDGRRTFYIDSVK, GRLAGTFDS the result was nd, nd, nd, nd, nd, nd (controls 0 of 18).
With NFDLNSYGIS, VIYSDGRRTFYGDSVK, GRTAGTFNS the result was nd, -0.22, nd, nd, nd, nd (controls 0 of 18).
With GFTLNNYGIS, VIYSDGRRTFYSDSVK, GTAAGTFDS the result was 0.10, 0.31, 0.35, 0.34, 0.47, -0.08 (mean 0.25; controls 0 of 18).
With GFTLNSYGIS, VIYSDGRRTFYIDSVK, GRVAGTFWS the result was 2.80, 2.25, 1.71, nd, nd, 2.22 (mean 2.25; controls 0 of 18).
With GFTLNRYGIS, VIYSDGRRTFYSDSVK, GEAAGTFDK the result was 1.45, nd, 1.98, 1.50, 2.64, 2.02 (mean 1.92; controls 0 of 18).
With GFPLNSYGIS, VIYSDGRRTFYVDSVK, GQLAGTFDS the result was nd, nd, nd, 1.03, nd, nd (controls 0 of 18).
With GFSLNEYGIS, VIYSDGRRTFYTDSVK, GREAGTFDV the result was -0.37, -1.51, -1.00, -1.60, -0.28, -0.04 (mean -0.80; controls 0 of 18).
With GFTLNSYGIS, VIYSDGRRTFYTDSVK, GKFAGTFDS the result was 1.41, 1.33, 1.19, 1.84, 1.89, 1.67 (mean 1.56; controls 0 of 18).
With GFTLNDYGIS, VIYSDGRRTFYEDDVK, GRTAGTFDS the result was 1.12, 1.54, 0.64, 1.01, 1.23, nd (mean 1.11; controls 0 of 18).
With GFDLNSYGIS, VIYSDGRRTFYMDSVK, GRAAVTFDS the result was 1.66, nd, nd, nd, nd, nd (controls 0 of 18).
With GFTLNSYGIS, VIYSDGRRTFYGDSVK, GRAAGSFTK the result was nd, nd, nd, nd, nd, nd (controls 0 of 18).
With GFTLNSYGIS, VIYSDGRRTFYSDSVK, GKAVGTFDS the result was nd, 2.39, nd, nd, 2.22, nd (mean 2.30; controls 0 of 18).
With GFTLNDYGIS, VIYSDGRRTFYQDSVK, GRVAGTFWS the result was nd, nd, nd, 0.83, nd, nd (controls 0 of 18).
With GFTLNSYGIS, VIYADGRRTFYGDSVK, GRAAGTNKM the result was nd, nd, nd, nd, nd, nd (controls 0 of 18).
With GFALNSYGIS, VIYSDGRRTFYDDSVK, GQVAGTFDS the result was 0.49, 0.95, 0.50, 0.39, 0.74, 0.86 (mean 0.65; controls 0 of 18).

For reference, 2 entries of the list once more:

CDR-H1,CDR-H2,CDR-H3,"replicates, log10 nM","log10 Kd (nM), mean",signal with controls
GFTLNEYGIS,VIYSDGRRTFYGDSVK,GRAAETFDV,"nd, nd, nd, nd, nd, nd",nd,0 of 18
GFTLNEYGIS,VIYSDGRRTFYADDVK,GRFAGTFDS,"0.19, 0.12, -0.04, 0.17, 0.25, -0.17",0.09,0 of 18